Data on one compound can be found in paper PMC9124651, “High-performance thin-layer chromatography in combination with an acetylcholinesterase-inhibition bioassay with pre-oxidation of organothiophosphates to determine neurotoxic effects in storm, waste, and surface water” (Analytical and Bioanalytical Chemistry, 2022).

Chains of the proteins cited; added tags and fusions are not shown. Residues count along the entry.
UniProt O42275, 24-633: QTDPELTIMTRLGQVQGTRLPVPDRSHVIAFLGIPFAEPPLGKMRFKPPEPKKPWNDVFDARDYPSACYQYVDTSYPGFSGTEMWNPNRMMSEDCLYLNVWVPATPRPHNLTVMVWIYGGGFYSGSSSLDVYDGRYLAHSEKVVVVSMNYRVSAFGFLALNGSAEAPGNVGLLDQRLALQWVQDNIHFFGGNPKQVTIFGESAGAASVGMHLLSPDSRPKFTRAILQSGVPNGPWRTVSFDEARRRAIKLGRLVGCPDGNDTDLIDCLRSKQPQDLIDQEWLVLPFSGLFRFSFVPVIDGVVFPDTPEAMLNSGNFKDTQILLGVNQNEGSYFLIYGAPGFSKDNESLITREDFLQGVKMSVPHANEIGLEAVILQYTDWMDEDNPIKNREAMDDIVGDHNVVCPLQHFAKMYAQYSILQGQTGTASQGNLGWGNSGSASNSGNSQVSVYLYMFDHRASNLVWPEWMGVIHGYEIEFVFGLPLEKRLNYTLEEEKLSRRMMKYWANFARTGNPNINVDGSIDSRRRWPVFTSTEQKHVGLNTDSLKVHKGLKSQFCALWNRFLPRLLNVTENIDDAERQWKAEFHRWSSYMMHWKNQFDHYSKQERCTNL

The test has as its target T1, AChE from electric eel (Electrophorus electricus) (Electrophorus electricus, UniProt O42275).
T1 construct: purchased Sigma-Aldrich GmbH (Steinheim, Germany)
Put plainly: AChE-inhibition microtiter assay (Ellman, 96-well, with or without NBS oxidation). The test is classed as biochemical. The method, then: Stock solutions (1 mg/mL) of NBS and ascorbic acid were each freshly prepared before the test and then diluted to 10 µg/mL and 100 µg/mL, respectively. The assay was performed with modifications according to Ellman’s method. OTPs, oxons, water, and methanol blanks (15 µL) were each mixed with 15 µL of NBS (10 µg/mL) in a 96-well plate. After an incubation at room temperature for 5 min, the reaction was stopped by adding 15 µL ascorbic acid (100 µg/mL). For the test setup without oxidation, OTPs, oxons, water, and methanol blanks (15 µL) were mixed with 30 µL water per well. Subsequently, 200 µL of a DTNB solution (0.15 mM), buffered in TRIS/HCl at a pH of 7.4, was added to each well of both test setups. Then, 20 µL of an AChE solution (0.5 U/mL), also buffered in TRIS/HCl at a pH of 7.4, was added. An incubation at 30 °C for 30 min without shaking followed. An ATCL solution (0.8 mM) was freshly prepared with water and 30 µL per well was added after incubation. […] The absorbance of the yellow-colored anion was photometrically measured at 405 nm (Sunrise Remote, Tecan Group AG, Männedorf, Schweiz).
Dilution series with eight concentrations of the three OTPs and related oxons (Tab. S1) were freshly prepared from stock solutions (1–10 mg/mL) in methanol. […] The 95% confidence intervals of the curves and the standard deviations of the mean AChE activity were also calculated. […]

For the compound `CCOP(=O)(OCC)Oc1nc(Cl)c(Cl)cc1Cl` [Chlorpyrifos-oxon], the IC50 was 23 nM. This lies in the double-digit nanomolar range.

Broadly, the IC50 is the concentration needed to halve the response being measured. A lower IC50 goes with higher potency.
